Shown are actives, neighbours in structure and some others; about 1.8% of the full set was active somewhere.
RAD52 inh: inhibitors of human RAD52 DNA annealing. P43351. recombinant RAD52 DNA annealing, FRET fluorescence. inhibition, % at 18.7 µM. 360,000 compounds, 0.46% hits. AID 651710;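 active = every replicate showing at least 50% inhibition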
MLL AF4-AF9 inh: inhibitors of human MLL-AF4/AF9 interaction | AID 651704 | 350,000 compounds, 0.47% hits | inhibition, % at 10 µM | P42568 | AlphaScreen, biotin-AF4 peptide binding to FLAG-AF9;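 active = every replicate reaching a set inhibition limit, whatever the replicate mean, cut at about 25% in these data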;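 also: 0% = plate neutral control median and 100% = total signal loss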
E-selectin induc: induces E-selectin expression in human endothelial cells. P16581. HUVEC E-selectin immunofluorescence imaging; normalized: neutral wells 0, TNF-alpha wells 100. activation, % at 7.58 µM. 260,000 compounds, 0.37% hits. AID 686992;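 active = mean E-selectin-positive cell signal at least 10% of the positive control, reached in at least 60% of replicates, without over 20% cell loss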
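Assay system: HUVEC primary endothelial cells. Input: 3,000 HUVEC seeded per well. Doses: one compound dose added by pin transfer. Read-out basis: % PE-positive cells. Benchmarks: TNF-alpha high, DMSO low. Detection: immunofluorescence imaging. Buffer or medium: EGM-2, gelatin.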
SIRT5 inh: blocks human SIRT5 desuccinylation of peptide | Q9NXA8 | Purified SirT5, succinyl-peptide AMC, trypsin-coupled fluorescence | inhibition, % at 15 µM | 330,000 compounds, 1.1% hits | AID 652115; in the data active = inhibition above about 15%
Yeast UUG start: modulators of start codon recognition fidelity in yeast. S. cerevisiae UUG-firefly luciferase reporter, luminescence/redox ratio. activity score, % at 18.7 µM. 0.13% of 350,000 active. AID 602363;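 active = replicate mean at a twofold rise or more, about +100% in these data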;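 also: firefly luciferase made from a UUG start codon reports start codon fidelity; reporter light over untreated wells divided by growth signal over untreated wells; some hits fall short of that in this replicate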
RAD54 inh: inhibitors of human RAD54 branch migration | RAD54 Holliday junction branch migration, FAM/BHQ fluorescence | AID 602329 | 360,000 compounds, 0.14% hits | inhibition, % at 10.4 µM | Q92698;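 active = mean normalized replicate activity at least 40 and at least half of replicates scoring 40 or more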;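 also: 0% = median of neutral control wells and 100% = median of positive control wells; inhibitors cause a drop in the FAM fluorescence signal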
Active calls of the source: *.

Results for CCN1CCN(c2ccc(S(=O)(=O)N3CCCCC3)cc2NC(=O)c2ccccc2)CC1 ?
RAD52 inh: 1; MLL AF4-AF9 inh: -30; E-selectin induc: 4; SIRT5 inh: 2; Yeast UUG start: -22; RAD54 inh: -6

Results for CCN1CCN(c2ccc(S(=O)(=O)N3CCCCC3)cc2NC(=O)c2ccc([N+](=O)[O-])s2)CC1 ?
RAD52 inh: 15; MLL AF4-AF9 inh: 29*; E-selectin induc: 0; SIRT5 inh: 4; Yeast UUG start: 25; RAD54 inh: 5

How did O=C(N[C@H]1CC[C@H](CCNC(=O)C2CC2)O[C@H]1CO)c1ccccn1 do in these assays?
RAD52 inh: -2; MLL AF4-AF9 inh: -1; E-selectin induc: -1; SIRT5 inh: -3; Yeast UUG start: -6; RAD54 inh: -5

How did COc1ccc(S(=O)(=O)N(C)C[C@@H]2Oc3ncc(/C=C/c4ccccc4)cc3C(=O)N([C@@H](C)CO)C[C@@H]2C)cc1 do in these assays?
RAD52 inh: 5; MLL AF4-AF9 inh: 7; E-selectin induc: 0; SIRT5 inh: -7; RAD54 inh: 10

Results for C[C@@H]1CN([C@@H](C)CO)C(=O)c2cc(C#CC3CCCCC3)cnc2O[C@@H]1CN(C)S(=O)(=O)c1ccccc1 ?
RAD52 inh: 9; MLL AF4-AF9 inh: -1; E-selectin induc: 0; SIRT5 inh: 16*; Yeast UUG start: 2; RAD54 inh: -5

How did C[C@H](CO)N1C[C@H](C)[C@H](CN(C)S(=O)(=O)c2cccc(F)c2)Oc2ncc(-c3cc4ccccc4o3)cc2C1=O do in these assays?
RAD52 inh: 5; MLL AF4-AF9 inh: 3; E-selectin induc: 0; SIRT5 inh: 15*; RAD54 inh: 6

Results for COc1ccc(S(=O)(=O)N(C)C[C@H]2Oc3ncc(/C=C/c4ccccc4)cc3C(=O)N([C@H](C)CO)C[C@@H]2C)cc1 ?
RAD52 inh: 17; MLL AF4-AF9 inh: 7; SIRT5 inh: 20*; RAD54 inh: 3

Results for C[C@H](CO)N1C[C@H](C)[C@@H](CN(C)S(=O)(=O)c2ccccc2)Oc2ncc(C#CC3CCCCC3)cc2C1=O ?
RAD52 inh: 0; MLL AF4-AF9 inh: 3; E-selectin induc: 0; SIRT5 inh: 15; Yeast UUG start: -12; RAD54 inh: -11

How did C[C@@H]1CN([C@@H](C)CO)C(=O)c2cc(C#CC3CCCCC3)cnc2O[C@H]1CN(C)S(=O)(=O)c1cccc(F)c1 do in these assays?
RAD52 inh: 3; MLL AF4-AF9 inh: 1; SIRT5 inh: 22*; RAD54 inh: -1

How did CN1CCN(C(=O)C[C@@H]2CC[C@@H]3[C@H](COC[C@@H](O)CN3C(=O)C3CCCC3)O2)CC1 do in these assays?
RAD52 inh: -57; MLL AF4-AF9 inh: 0; E-selectin induc: 0; SIRT5 inh: 3; Yeast UUG start: -8; RAD54 inh: -8

What do the screens show for `CO[C@H]1CN(C)C(=O)c2ccc(NC(=O)Nc3ccccc3Cl)cc2OC[C@H](C)NC[C@H]1C`?
RAD52 inh: 12; MLL AF4-AF9 inh: 2; E-selectin induc: 0; SIRT5 inh: 4; RAD54 inh: 0

How did C[C@@H]1CN([C@@H](C)CO)S(=O)(=O)c2ccc(Br)cc2O[C@H]1CN(C)Cc1ccccc1 do in these assays?
RAD52 inh: 14; MLL AF4-AF9 inh: 3; E-selectin induc: 0; SIRT5 inh: 8; Yeast UUG start: -6; RAD54 inh: -4

What do the screens show for `C[C@@H]1CN([C@H](C)CO)C(=O)c2cc(C#CC3CCCCC3)cnc2O[C@H]1CN(C)S(=O)(=O)c1cccc(F)c1`?
RAD52 inh: 11; MLL AF4-AF9 inh: -2; E-selectin induc: -2; SIRT5 inh: 11; RAD54 inh: 5

Results for C[C@H](CO)N1C[C@H](C)[C@@H](CN(C)S(=O)(=O)c2cccc(F)c2)Oc2ncc(C#CC3CCCCC3)cc2C1=O ?
RAD52 inh: 6; MLL AF4-AF9 inh: 3; SIRT5 inh: 30*; RAD54 inh: 1

How did C[C@H]1CN([C@@H](C)CO)C(=O)c2cc(C#CC3CCCCC3)cnc2O[C@H]1CN(C)S(=O)(=O)c1cccc(F)c1 do in these assays?
RAD52 inh: -4; MLL AF4-AF9 inh: 4; E-selectin induc: 2; SIRT5 inh: 2; RAD54 inh: 5

Random excerpt: three compounds from above.
Results for C[C@H](CO)N1C[C@H](C)[C@@H](CN(C)S(=O)(=O)c2ccccc2)Oc2ncc(C#CC3CCCCC3)cc2C1=O ?
RAD52 inh: 0; MLL AF4-AF9 inh: 3; E-selectin induc: 0; SIRT5 inh: 15; Yeast UUG start: -12; RAD54 inh: -11

Results for C[C@H](CO)N1C[C@H](C)[C@@H](CN(C)S(=O)(=O)c2cccc(F)c2)Oc2ncc(C#CC3CCCCC3)cc2C1=O ?
RAD52 inh: 6; MLL AF4-AF9 inh: 3; SIRT5 inh: 30*; RAD54 inh: 1

Results for COc1ccc(S(=O)(=O)N(C)C[C@H]2Oc3ncc(/C=C/c4ccccc4)cc3C(=O)N([C@H](C)CO)C[C@@H]2C)cc1 ?
RAD52 inh: 17; MLL AF4-AF9 inh: 7; SIRT5 inh: 20*; RAD54 inh: 3

The results go on:
What do the screens show for `C[C@@H]1CN([C@@H](C)CO)C(=O)c2cc(C#CC3CCCCC3)cnc2O[C@@H]1CN(C)S(=O)(=O)c1cccc(F)c1`?
RAD52 inh: 5; MLL AF4-AF9 inh: 0; E-selectin induc: 0; SIRT5 inh: 18*; RAD54 inh: 1

How did COc1ccc(NC(=O)C2CCN(S(=O)(=O)c3cccc4nonc34)CC2)cc1OC do in these assays?
RAD52 inh: -10; MLL AF4-AF9 inh: 26*; SIRT5 inh: -2; Yeast UUG start: -22; RAD54 inh: 5

How did C[C@H]1CN([C@@H](C)CO)C(=O)Cc2cc(NS(=O)(=O)c3cccs3)ccc2O[C@@H]1CN(C)Cc1ccc2c(c1)OCO2 do in these assays?
RAD52 inh: -1; MLL AF4-AF9 inh: 1; E-selectin induc: -1; SIRT5 inh: 4; Yeast UUG start: -6; RAD54 inh: 2

What do the screens show for `C[C@@H]1CN([C@@H](C)CO)C(=O)c2cc(C3=CCCCC3)cnc2O[C@@H]1CN(C)S(C)(=O)=O`?
E-selectin induc: 0

Results for CS(=O)(=O)N1c2ccccc2[C@]2([C@@]34C[C@H]5C(=O)N[C@@H](Cc6ccccc6)C(=O)N5[C@@H]3N(S(C)(=O)=O)c3ccccc34)C[C@H]3C(=O)N[C@@H](Cc4ccccc4)C(=O)N3[C@H]12 ?
RAD52 inh: -11; MLL AF4-AF9 inh: 0; E-selectin induc: 0; SIRT5 inh: 33*

Results for O=C(C[C@H]1C=C[C@@H](NC(=O)c2ccncc2)[C@H](CO)O1)Nc1ccc(-c2ccccc2)cc1 ?
RAD52 inh: -11; MLL AF4-AF9 inh: 0; E-selectin induc: 0; SIRT5 inh: -1; Yeast UUG start: -16; RAD54 inh: 7

What do the screens show for `Cc1ccccc1-c1ccnc2[nH]n(-c3ccccc3)c(=O)c12`?
RAD52 inh: -25; MLL AF4-AF9 inh: 1; E-selectin induc: 0; SIRT5 inh: 24*; Yeast UUG start: 4; RAD54 inh: 2

How did CCOc1ccc(OCC)c(S(=O)(=O)n2ccnc2C)c1 do in these assays?
RAD52 inh: 5; MLL AF4-AF9 inh: -1; E-selectin induc: 0; SIRT5 inh: -2; Yeast UUG start: -19; RAD54 inh: 2

Results for CCOc1ccc(C(C)C)cc1S(=O)(=O)n1ccnc1C ?
RAD52 inh: -7; MLL AF4-AF9 inh: -3; E-selectin induc: -2; SIRT5 inh: 17*; Yeast UUG start: -19; RAD54 inh: 2

Results for COc1ccc(C)cc1S(=O)(=O)n1ccnc1C ?
RAD52 inh: -20; MLL AF4-AF9 inh: 0; SIRT5 inh: 112*; Yeast UUG start: -21; RAD54 inh: -9
